Results reported in patent US12453728B1, “Compositions comprising inhibitors of microsomal triglyceride transfer protein and Apo-B secretion” (Redux Therapeutics, LLC, priority 2024, dated 2025).

Test: Safety and tolerability in the olanzapine study
Conditions: whole study

COc1cccc(C(=O)Nc2ccc3c(c2)CCN(C(=O)Oc2ccccc2)C3)c1-c1ccc(C(F)(F)F)cc1 [Compound 3]
SAEs, fatal events, discontinuations due to adverse events: No SAEs, fatal events, or discontinuations due to adverse events
